# Test results published in paper PMC8865417, “Receptor Interaction Profiles of 4-Alkoxy-3,5-Dimethoxy-Phenethylamines (Mescaline Derivatives) and Related Amphetamines” (Frontiers in Pharmacology, 2022).
# The chains behind the UniProt entries cited, without tags or fusion partners.
# UniProt P28223, whole entry: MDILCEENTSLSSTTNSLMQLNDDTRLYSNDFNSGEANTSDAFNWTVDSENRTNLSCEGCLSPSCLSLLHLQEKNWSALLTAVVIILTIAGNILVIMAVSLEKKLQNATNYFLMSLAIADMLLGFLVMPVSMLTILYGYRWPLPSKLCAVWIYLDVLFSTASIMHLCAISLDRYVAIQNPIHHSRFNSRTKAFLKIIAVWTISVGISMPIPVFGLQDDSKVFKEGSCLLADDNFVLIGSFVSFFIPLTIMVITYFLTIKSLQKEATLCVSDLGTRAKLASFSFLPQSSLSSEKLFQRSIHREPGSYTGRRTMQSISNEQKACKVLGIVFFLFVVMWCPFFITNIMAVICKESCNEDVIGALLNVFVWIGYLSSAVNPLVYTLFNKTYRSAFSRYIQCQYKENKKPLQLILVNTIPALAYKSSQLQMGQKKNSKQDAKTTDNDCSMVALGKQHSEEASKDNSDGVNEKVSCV
# Target: T1, h5-HT2A receptor (Homo sapiens, UniProt P28223)
# T1 construct: expressed in transfected cells; host or cells: HEK 293 cells (membrane preparations)
# Experiment: Radioligand binding at h5-HT2A receptor ([3H]ketanserin)
# Details: binding ratio
compound,measurement,value
"COc1cc(CCN)cc(OC)c1OC [compound 5, 3,4,5-trimethoxyphenethylamine]",Selectivity 5-HT2A vs. 5-HT1A,0.7
same,Selectivity 5-HT2A vs. 5-HT2C,1.1
